biological target: JAK1 (recombinant purified GST-tagged catalytic domain) (Homo sapiens (Human), UniProt P23458); experiment: biochemical
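Note: biochemical assay with HTRF read-out.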

Sequences of proteins named here, by UniProt entry; tags and fusion partners are left off. Residues count along the entry.
UniProt P23458, 875-1153: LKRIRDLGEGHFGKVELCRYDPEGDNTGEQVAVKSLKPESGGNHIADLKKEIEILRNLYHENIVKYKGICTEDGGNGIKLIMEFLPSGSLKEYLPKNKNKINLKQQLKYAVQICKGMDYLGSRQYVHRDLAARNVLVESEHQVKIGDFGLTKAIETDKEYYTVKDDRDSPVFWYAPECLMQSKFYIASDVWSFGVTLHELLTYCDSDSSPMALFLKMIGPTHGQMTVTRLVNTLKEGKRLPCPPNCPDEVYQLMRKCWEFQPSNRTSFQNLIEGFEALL

| Structure (SMILES) | IC50 |
| --- | --- |
| N#C[C@H]1C[C@H](OC(=O)Nc2ccccc2)CCC1n1cc(C(N)=O)c(Nc2ccc(F)cc2)n1 (mixture of isomers) [Example 34-3, (1R,3S,4S and 1S,3R,4R)-4-{4-carbamoyl-3-[(4-fluorophonyl)aminol-1H-pyrazol-1-yl}-3-cyanocyclohexyl phenylcarbamate] | 0.95 nM |
| CS(=O)(=O)c1ccc(Nc2nn([C@H]3CC[C@@H](N4CC5(CCC5)C4)C[C@@H]3C#N)cc2C(N)=O)cc1 (single isomer, unassigned) [Example 28-145, 1-[(1S,2S,4R or 1R,2R,4S)-4-(2-azaspiro[3.3]hept-2-yl)-2-cyanocyclohexyl]-3-{[4-(methylsulfonyl)phenyl]amino}-1H-pyrazole-4-carboxamide] | 0.25 nM |
| N#C[C@H]1C[C@H](O)CC[C@@H]1n1cc(C(N)=O)c(Nc2ccc(OC(F)F)nc2)n1 (single isomer, unassigned) [Example 25-1, 1-[(1S,2S,4R or 1R,2R,4S)-2-cyano-4-hydroxycyclohexyl]-3-{[6-(difluoromethoxy)pyridin-3-yl]amino}1H-pyrazole-4-carboxamide] | 8 nM |
| CN([C@H]1CCC(n2cc(C(N)=O)c(Nc3ccc(Cl)cc3)n2)[C@@H](C#N)C1)C1(C)COC1 (single isomer, unassigned) [Example 28-232, 3-[(4-chlorophenyl)amino]-1-{(1S,2S,4S or 1R,2R,4R)-2-cyano-4-[methyl(3-methyloxetan-3-yl)amino]cyclohexyl}-1H-pyrazole-4-carboxamide] | 0.65 nM |
| N#C[C@H]1C[C@H](N2CCC2)CC[C@@H]1n1cc(C(N)=O)c(Nc2ccc(S(=O)(=O)C(F)(F)F)cc2)n1 (single isomer, unassigned) [Example 28-169, 1-[(1S,2S,4R or 1R,2R,4S)-4-azetidin-1-yl-2-cyanocyclohexyl]-3-({4-[(trifluoromethyl)sulfonyl]phen-yl}amino)-1H-pyrazole-4-carboxamide] | 0.29 nM |
| N#C[C@H]1C[C@H](NCCC(F)(F)F)CC[C@@H]1n1cc(C(N)=O)c(Nc2ccc(S(=O)(=O)C(F)(F)F)cc2)n1 (single isomer, unassigned) [Example 28-167, 1-{(1S,2S,4R or 1R,2R,4S)-2-cyano-4-[(3,3,3-trifluoropropyl)amino]cyclo-hexyl}-3-({4-[(trifluoro-methyl)sulfonyl]phenyl}amino)-1H-pyrazole-4-carboxamide] | 3 nM |
| CN[C@H]1CC[C@H](n2cc(C(N)=O)c(Nc3ccc(Cl)c(F)c3)n2)[C@@H](C#N)C1 (single isomer, unassigned) [Example 28-43, 3-[(4-chloro-3-fluorophenyl)amino]-1-[(1S,2S,4S or 1R,2R,4R)-2-cyano-4-(methylamino)cyclohexyl]-1H-pyrazole-4-carboxamide] | 2 nM |
| N#C[C@H]1C[C@@H](NC2CC2)CC[C@@H]1n1cc(C(N)=O)c(Nc2ccc(C(F)(F)F)cc2)n1 (single isomer, unassigned) [Example 28-137, 1-[(1S,2S,4S or 1R,2R,4R)-2-cyano-4-(cyclopropylamino)cyclohexyl]-3-{[4-(trifluoromethyl)phenyl]amino}-1H-pyrazole-4-carboxamide] | 0.9 nM |
| N#C[C@H]1C[C@@H](OC(=O)Nc2ccccc2)CCC1n1cc(C(N)=O)c(Nc2ccc(F)cc2)n1 (mixture of isomers) [Example 34-1, (1S,3S,4S and 1R,3R,4R)-4-{4-Carbamoyl-3-[(4-fluorophenyl)amino]-1H-pyrazol-1-yl}-3-cyanocyclohexyl phenylcarbamate] | 7 nM |
| N#C[C@H]1C[C@H](NCc2c(F)cccc2F)CC[C@@H]1n1cc(C(N)=O)c(Nc2ccc(C(F)(F)F)cc2)n1 (single isomer, unassigned) [Example 30-13, 1-{(1S,2S,4R or 1R,2R,4S)-2-cyano-4-[(2,6-difluoro-benzyl)amino]cyclohexyl}-3-{[4-(trifluoromethyl)phenyl]amino}-1H-pyrazole-4-carboxamide] | 11 nM |
| N#C[C@@H]1C[C@H](C(=O)NC2CCC2)CC[C@H]1n1cc(C(N)=O)c(Nc2ccc(Cl)cc2)n1 (single isomer, unassigned) [Example 35-11, 3-[(4-chlorophenyl)amino]-1-[(1R,2R,4R or 1S,2S,4S)-2-cyano-4-(cyclobutylcarbamoyl)cyclohexyl]-1H-pyrazole-4-carboxamide] | 10 nM |
| N#C[C@H]1C[C@H](NC2CC2)CC[C@@H]1n1cc(C(N)=O)c(Nc2ccc(C(F)(F)F)cc2)n1 (single isomer, unassigned) [Example 28-139, 1-[(1S,2S,4R or 1R,2R,4R)-2-cyano-4-(cyclopropylamino)cyclohexyl]-3-{[4-(trifluoromethyl)phenyl]amino}-1H-pyrazole-4-carboxamide] | 5 nM |
| CC(C)(C)N[C@H]1CC[C@H](n2cc(C(N)=O)c(Nc3ccc(Cl)cc3)n2)[C@@H](C#N)C1 (single isomer, unassigned) [Example 28-5, 1-((1R,2R,4R or 1S,2S,4S)-4-(tert-Butylamino)-2-cyanocyclohexyl)-3-((4-chlorophenyl)amino)-1H-pyrazole-4-carboxamide] | 1 nM |
| CN(C)[C@@H]1CC[C@H](n2cc(C(N)=O)c(Nc3ccc(C(F)(F)F)cc3)n2)[C@@H](C#N)C1 (single isomer, unassigned) [Example 28-189, 1-[(1S,2S,4R or 1R,2R,4S)-2-cyano-4-(dimethylamino)cyclohexyl]-3-{[4-(trifluoromethyl)phenyl]amino}-1H-pyrazole-4-carboxamide] | 0.35 nM |
| N#C[C@H]1C[C@@H](O)CC[C@@H]1n1cc(C(N)=O)c(Nc2ccc(Cl)nc2)n1 (single isomer, unassigned) [Example 33-14, 3-[(6-chloropyridin-3-yl)amino]-1-[(1S,2S,4S or 1R,2R,4R)-2-cyano-4-hydroxycyclohexyl]-1H-pyrazole-4-carboxamide] | 4 nM |
| N#C[C@H]1C[C@@H](NCC(F)F)CC[C@@H]1n1cc(C(N)=O)c(Nc2ccc(S(=O)(=O)C(F)(F)F)cc2)n1 (single isomer, unassigned) [Example 28-165, 1-{(1S,2S,4S or 1R,2R,4R)-2-cyano-4-[(2,2-difluoroethyl)amino]cyclohexyl}-3-({4-[(trifluoro-methyl)sulfonyl]phenyl}amino)-1H-pyrazole-4-carboxamide] | 0.45 nM |
| CC1(C)CN([C@@H]2CC[C@H](n3cc(C(N)=O)c(Nc4ccc(C(F)(F)F)cc4)n3)[C@@H](C#N)C2)C1 (single isomer, unassigned) [Example 28-203, 1-[(1S,2S,4R or 1R,2R,4S)-2-cyano-4-(3,3-dimethylazetidin-1-yl)cyclohexyl]-3-{[4-(trifluoromethyl)phenyl]amino}-1H-pyrazole-4-carboxamidc] | 2 nM |
| N#C[C@H]1C[C@@H](O)CC[C@@H]1n1cc(C(N)=O)c(Nc2ccc(OC(F)F)nc2)n1 (single isomer, unassigned) [Example 25-2, 1-[(1S,2S,4S or 1R,2R,4R)-2-cyano-4-hydroxycyclohexyl]-3-{[6-(difluoromethoxy)pyridin-3-yl]amino}-1H-pyrazole-4-carboxamide] | 2 nM |
| CC1(C)CN([C@H]2CC[C@H](n3cc(C(N)=O)c(Nc4ccc([C@@H](O)C(F)(F)F)cc4)n3)[C@@H](C#N)C2)C1 (single isomer, unassigned) [Example 28-61, 1-[(1S,2S,4S or 1R,2R,4R)-2-cyano-4-(3,3-dimethylazetidin-1-yl)cyclohexyl]-3-({4-[(1R or 1S)-2,2,2-trifluoro-1-hydroxyethyl]phenyl}amino)-1H-pyrazole-4-carboxamide] | 0.06 nM |
| N#C[C@H]1C[C@@H](C(=O)NC2CCC2)CC[C@@H]1n1cc(C(N)=O)c(Nc2ccc(Cl)cc2)n1 (single isomer, unassigned) [Example 35-12, 3-[(4-chlorophenyl)amino]-1-[(1S,2S,4S or 1R,2R,4R)-2-cyano-4-(cyclobutylcarbamoyl)cyclohexyl]-1H-pyrazole-4-carboxamide] | 20 nM |
| N#C[C@H]1C[C@H](OCC2CC2)CC[C@@H]1n1cc(C(N)=O)c(Nc2ccc([C@H](O)C(F)(F)F)cc2)n1 (single isomer, unassigned) [Example 26-7, 1-[(1S,2S,4R or 1R,2R,4S)-2-cyano-4-(cyclopropylmethoxy)cyclohexyl]-3-({4-[(1S or 1R)-2,2,2-trifluoro-1-hydroxyethyl]phenyl]amino)-1H-pyrazole-4-carboxamide] | 0.9 nM |
| N#C[C@H]1C[C@@H](NCC(F)(F)F)CCC1n1cc(C(N)=O)c(Nc2ccc(S(=O)(=O)C(F)(F)F)cc2)n1 (mixture of isomers) [Example 27-11, 1-{(1S,2S,4S and 1R,2R,4R)-2-cyano-4-[(2,2,2-trifluoroethyl)amino]cyclohexyl}-3-({4-[(trifluoromethyl)sulfonyl]phenyl}amino)-1H-pyrazole-4-carboxamide] | 0.55 nM |
| N#C[C@H]1C[C@@H](N2CCC2)CC[C@@H]1n1cc(C(N)=O)c(Nc2ccc(C=O)cc2)n1 (single isomer, unassigned) [Example 28-66, 1-[(1S,2S,4S or 1R,2R,4R)-4-azetidin-1-yl-2-cyanocyclohexyl]-3-[(4-formylphenyl)amino]-1H-pyrazole-4-carboxamide] | 0.45 nM |
| CNC(=O)c1ccc(Nc2nn([C@H]3CCCC[C@@H]3C#N)cc2C(N)=O)cc1 (racemic) [Example 17-4, 1-[(1S,2S and 1R,2R)-2-cyanocyclohexyl]-3-{[4-(methylcarbamoyl)phenyl]amino}-1H-pyrazole-4-carboxamide] | 0.58 nM |
| CC(C)(C)OC(=O)NC1CC[C@H](C#N)C(n2cc(C(N)=O)c(Nc3ccc(F)cc3)n2)C1 (mixture of isomers) [Example 11-3, tert-butyl [(1R,3S,4S and 1S,3R,4R) or (1S,3S,4S and 1R,3R,4R)-3-{4-carbamoyl-3-[(4-fluorophenyl)amino]-1H-pyrazol-1-yl}-4-cyanocyclohexyl]carbamate] | 2 nM |
| CNC(=O)c1ccc(Nc2nn([C@H]3CCCC[C@H]3C#N)cc2C(N)=O)cc1 (racemic) [Example 17-14, 1-[(1S,2R and 1R,2S)-2-cyanocyclohexyl]-3-{[4-(methylcarbamoyl)phenyl]amino}-1H-pyrazole-4-carboxamide] | 83 nM |

Reference: US8962608B2, “Cycloalkylnitrile pyrazole carboxamides as janus kinase inhibitors” (Merck Sharp & Dohme Corp., priority 2011, dated 2015)
